# AlphaSeq binding of Ab-14 heavy chain variants to a spike HR2 peptide

The measurements come from Li et al. 2023 (doi:10.1038/s41467-023-39022-2) through the FLAb antibody collection.

The target is the same throughout: PDVDLGDISGINAS, from the HR2 region of SARS-CoV-2 spike.

Parent scFv Ab-14: VH joined to VL by a 15-residue (Gly4Ser)3 linker. Changes lie in the heavy chain CDRs alone.
VH: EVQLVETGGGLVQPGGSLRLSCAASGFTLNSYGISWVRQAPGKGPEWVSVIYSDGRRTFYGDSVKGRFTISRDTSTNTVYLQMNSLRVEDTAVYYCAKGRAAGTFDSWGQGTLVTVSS
VL: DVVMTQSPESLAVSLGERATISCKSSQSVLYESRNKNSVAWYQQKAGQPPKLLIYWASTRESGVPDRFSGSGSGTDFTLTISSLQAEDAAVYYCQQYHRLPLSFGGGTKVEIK

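The variants were designed computationally from a first round of random CDR variants and then made and measured. Several design methods are mixed in this list. The scFvs were displayed on barcoded MATa yeast, the peptide on MATalpha yeast. Pairs that bind mate more often; barcode pairs of the diploids are counted by sequencing. The ratio of observed to expected reads was calibrated, replicate by replicate, on BCL2-family standards whose Kd was known from biolayer interferometry. The assay was run in six technical replicates.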

Each variant is given by its three heavy chain CDRs, as the data file delimits them; those of the parent are GFTLNSYGIS, VIYSDGRRTFYGDSVK, GRAAGTFDS.
Variants here have more than six changes.
Numbers give log10(Kd / nM), so 0 is 1 nM and 3 is 1 µM. Smaller is tighter.
The mean shown is taken over the replicates in which the pair was detected.
"nd" marks a missing value. The strain was present, yet no cells mated with the target were sequenced in that replicate, which points to weak or no binding.
As a blank, each scFv also met three strains without target: over all heavy chain designs, 1% of these pairings were detected, typically at 2.08 and seldom below 0.84.
A sequence measured in both rounds can read differently, since the two assays cover different ranges.
In the paper, a design with two or fewer of six values counts as a poor binder.
The parent sequence was in this pool as ten entries: three were never detected, three once, and four in most replicates, with averages from 0.34 to 2.37.

GFDIEEYGIS | VIYADGQRTMEASNFK | GKQAGTFNL: 1.07, -0.37, -0.37, 0.30, -0.74, -0.03 (mean -0.03).
GFDLNEYGIS | VIYADGVRTAYSDSVK | GSNAGTFDM: -0.13, -0.36, -0.06, -1.32, 0.48, 0.35 (mean -0.17).
FFKLEDYGIS | VIYADGKRTAYVDNVK | GEIAGTFDV: nd, 2.18, nd, 2.05, 1.12, 2.55 (mean 1.98).
GFDLDEYGIS | VIYADGMRTFYIDSVK | GEAAGTFDV: 1.11, 1.26, 0.64, 0.33, 0.77, 0.72 (mean 0.80).
GFDLNEYGIS | VIYADGMRTFYADSVK | GELAGTFDF: -0.84, -0.86, -0.78, -0.53, -0.94, -0.98 (mean -0.82).
GDDLEAYGIS | VIYADGMRTYYSDAVK | GNVNGTFFD: nd, nd, nd, nd, nd, nd.
GYDLNEYGIS | VIYADGRRAAYIDDVK | GHVNDHFAV: nd, nd, nd, nd, nd, nd.
GFDLNEYGIS | VIYADGRRTFYIDSVK | GEVAGTFNV: -0.07, -0.07, -0.33, -0.65, -0.44, -0.12 (mean -0.28).
GFNLNDYGIS | VIYADGHRASMVDNVK | GHLAGTFFM: nd, nd, nd, nd, nd, nd.
GFQLNEYGIS | VIYADGMRSEYQDSVK | GGNNSSFKV: nd, nd, nd, nd, nd, nd.
GFDLNEYGIS | VIYADGRRTYYIDSVK | GNEAGTFDV: -0.20, -0.29, -0.43, -0.53, -0.57, -0.50 (mean -0.42).
GFDLNEYGIS | VIYADGVRTFYADSVK | GNEAGTFDM: 0.33, -0.43, -0.29, -0.30, -0.12, -0.57 (mean -0.23).
GFDLQEYGIS | VIYADGLRTAYGNSVK | GQSNALTTV: 0.17, 0.96, 0.26, 0.03, -0.07, 0.73 (mean 0.35).
GFSLEEYGIS | VIYADGMRTFYAEKVK | GNFDLQEGY: nd, nd, nd, nd, nd, nd.
GFDLDEYGIS | VIYADGRRTFYADSVK | GELAGTFDQ: -0.61, -0.68, -1.20, -1.15, -0.70, -0.92 (mean -0.88).
GFTIDEYGIS | VIYADGQRVAYNEKVK | GMLDGTFDQ: nd, nd, nd, nd, nd, nd.
GFDLNEYGIS | VIYADGRRTFYTDSVK | GNQAGTFDV: -0.11, -0.45, -0.16, -0.39, 0.27, -0.10 (mean -0.16).
GFDLNEYGIS | VIYADGMRTYYTDSVK | GENAGTFDV: -0.01, -0.27, 0.08, -0.62, -0.25, -0.14 (mean -0.20).
GFDLNEYGIS | VIYADGVRTFYTDSVK | GEVAGTFDS: 0.06, -0.13, -0.07, 0.22, 0.06, 0.29 (mean 0.07).
GFDLNEYGIS | VIYADGMRTFYTDSVK | GNVAGTFDQ: -0.45, -0.31, -0.85, -0.77, -0.59, -0.40 (mean -0.56).
GFDLNEYGIS | VIYADGMRTFYADSVK | GQLAGTFDA: -0.33, -0.55, -0.49, -0.22, -0.45, -0.23 (mean -0.38).
GFDLNEYGIS | VIYADGRRTAYTDSVK | GQAAGTFDL: -0.36, -0.16, -0.61, -0.62, -0.36, -0.44 (mean -0.42).
GFDLNEYGIS | VIYADGKRTAYSDSVK | GNEAGTFDL: -0.09, -0.06, -0.27, -0.30, -0.10, -0.08 (mean -0.15).
GFSLDEMGIS | VIYADGQRTAYQASVK | GQNGVVVFV: nd, nd, nd, nd, nd, nd.
GFNLDEYGIS | VIYADGNRTQYLENVK | GTNWGAVDL: nd, nd, nd, nd, nd, nd.
GFDLNEYGIS | VIYADGKRTAYIDSVK | GQNAGTFDV: -0.33, -0.45, -0.52, -0.46, -0.49, -0.28 (mean -0.42).
GMSLDEYGIS | VIYADGVRCAYANTVK | GELAGFFVL: 0.58, 0.30, 0.34, 0.27, 0.11, 0.51 (mean 0.35).
GFDLNEYGIS | VIYADGQRTAYADAVK | GNVAGTFDV: -0.80, -0.86, -0.76, -0.97, -1.01, -0.77 (mean -0.86).
GADLNEYGIS | VIYADGDRKAFQDDVK | GTNAGDFDE: 1.61, 1.82, 2.23, 2.08, 1.56, 1.63 (mean 1.82).
GFELDEYGIS | VIYADGTRKFYAQTVK | GELSGMILD: nd, nd, nd, nd, nd, nd.
GFDLNEYGIS | VIYADGMRTAYSDNVK | GEVAGTFDV: -0.43, -0.66, -0.51, -0.75, -0.64, -0.22 (mean -0.53).
GFGLNEYGIS | VIYADGQRTSYAQSVK | DANDIIGLV: nd, nd, nd, nd, nd, nd.
GFDLNEYGIS | VIYADGSRKAYADSVK | GNNAGTFDV: -2.58, -2.63, -2.69, -2.01, -2.10, -2.43 (mean -2.41).
EFDLNNYGIS | VIYADGLRTQYETSVK | GDVAGTFVS: 1.80, nd, nd, 2.24, nd, nd (mean 2.02).
GFGLDEYGIS | VIYADGFRAYYHDNVK | GVNSDVDIL: nd, nd, nd, nd, nd, nd.
GFDLNEYGIS | VIYADGRRTFYTDNVK | GQNAGTFDI: -0.29, -0.49, -0.56, -0.66, -0.55, -0.12 (mean -0.44).
GFDLNDYGIS | VIYADGRRTAYIDSVK | GEVAGTFDT: -0.14, -0.19, -0.38, -0.37, -0.44, -0.25 (mean -0.30).
GNDLQEYGIS | VIYADGMRNQYVQSVK | GMNAGVFDY: nd, nd, nd, nd, nd, nd.
GFDLDEYGIS | VIYADGQRTAYAESVK | GENAGTFDV: 0.07, 0.27, -0.04, -0.10, -0.22, -0.07 (mean -0.02).
GFDLSEYGIS | VIYADGRRTFYTDSVK | GNVAGTFDV: -0.31, -0.42, -0.53, -0.72, -0.53, -0.44 (mean -0.49).
GFDLNEYGIS | VIYADGSRTAYADSVK | GEVAGTFDI: -0.61, -1.22, -1.29, -0.41, -0.84, -0.76 (mean -0.85).
GFDLNEYGIS | VIYADGVRTAYLQNVK | GEVTGFDQY: nd, nd, 0.91, nd, nd, nd.

3 of these entries, quoted again:

The variant GFDLNEYGIS | VIYADGKRTAYIDSVK | GQNAGTFDV showed -0.33, -0.45, -0.52, -0.46, -0.49, -0.28 (mean -0.42).
The variant GFNLNDYGIS | VIYADGHRASMVDNVK | GHLAGTFFM showed nd, nd, nd, nd, nd, nd.
The variant GFDLNEYGIS | VIYADGRRTAYTDSVK | GQAAGTFDL showed -0.36, -0.16, -0.61, -0.62, -0.36, -0.44 (mean -0.42).